Experimental data as given in US20240327525A1 (VIB VZW, published 2024).

Biological target: human epidermal growth factor receptor on HeLa cells (human)
Assay: cell-based or functional assay

B1: construct 39 (2x9G8 S54A-GBP-FLAG3His6) (bispecific antibody)
chain: EVQLVESGGGLVQAGGSLRLS[about 100 residues not printed]WGQGTQVTVSSGGGGSGGGGSGGGGSEVQLVESGGGLVQAGGSLRLS[about 100 residues not printed]WGQGTQVTVSSGSGGGGSGGGGSGGGGSQVQLVESGGALVQPGGSLRLSCAASGFPVNRYSMRWYRQAPGKEREWVAGMSSAGDRSSYEDSVKGRFTISRDDARNTVYLQMNSLKPEDTAVYYCNVNVGFEYWGQGTQVTVSSDYKDDDDKDYKDDDDKDYKDDDDKHHHHHH
In the case of B1, the “cell-surface EGFR signal by flow cytometry, HeLa cells, 50 nM, 24 h, relative to untreated cells” value is reported as 49%.
